Among the data in patent publication US10233156B2, “9-membered fused ring derivative” (Shionogi & Co., Ltd., priority 2015, dated 2019) are IC50 values, retold here.

Chains of the proteins cited; added tags and fusions are not shown. Residues count along the entry.
UniProt O00763, 27-2458: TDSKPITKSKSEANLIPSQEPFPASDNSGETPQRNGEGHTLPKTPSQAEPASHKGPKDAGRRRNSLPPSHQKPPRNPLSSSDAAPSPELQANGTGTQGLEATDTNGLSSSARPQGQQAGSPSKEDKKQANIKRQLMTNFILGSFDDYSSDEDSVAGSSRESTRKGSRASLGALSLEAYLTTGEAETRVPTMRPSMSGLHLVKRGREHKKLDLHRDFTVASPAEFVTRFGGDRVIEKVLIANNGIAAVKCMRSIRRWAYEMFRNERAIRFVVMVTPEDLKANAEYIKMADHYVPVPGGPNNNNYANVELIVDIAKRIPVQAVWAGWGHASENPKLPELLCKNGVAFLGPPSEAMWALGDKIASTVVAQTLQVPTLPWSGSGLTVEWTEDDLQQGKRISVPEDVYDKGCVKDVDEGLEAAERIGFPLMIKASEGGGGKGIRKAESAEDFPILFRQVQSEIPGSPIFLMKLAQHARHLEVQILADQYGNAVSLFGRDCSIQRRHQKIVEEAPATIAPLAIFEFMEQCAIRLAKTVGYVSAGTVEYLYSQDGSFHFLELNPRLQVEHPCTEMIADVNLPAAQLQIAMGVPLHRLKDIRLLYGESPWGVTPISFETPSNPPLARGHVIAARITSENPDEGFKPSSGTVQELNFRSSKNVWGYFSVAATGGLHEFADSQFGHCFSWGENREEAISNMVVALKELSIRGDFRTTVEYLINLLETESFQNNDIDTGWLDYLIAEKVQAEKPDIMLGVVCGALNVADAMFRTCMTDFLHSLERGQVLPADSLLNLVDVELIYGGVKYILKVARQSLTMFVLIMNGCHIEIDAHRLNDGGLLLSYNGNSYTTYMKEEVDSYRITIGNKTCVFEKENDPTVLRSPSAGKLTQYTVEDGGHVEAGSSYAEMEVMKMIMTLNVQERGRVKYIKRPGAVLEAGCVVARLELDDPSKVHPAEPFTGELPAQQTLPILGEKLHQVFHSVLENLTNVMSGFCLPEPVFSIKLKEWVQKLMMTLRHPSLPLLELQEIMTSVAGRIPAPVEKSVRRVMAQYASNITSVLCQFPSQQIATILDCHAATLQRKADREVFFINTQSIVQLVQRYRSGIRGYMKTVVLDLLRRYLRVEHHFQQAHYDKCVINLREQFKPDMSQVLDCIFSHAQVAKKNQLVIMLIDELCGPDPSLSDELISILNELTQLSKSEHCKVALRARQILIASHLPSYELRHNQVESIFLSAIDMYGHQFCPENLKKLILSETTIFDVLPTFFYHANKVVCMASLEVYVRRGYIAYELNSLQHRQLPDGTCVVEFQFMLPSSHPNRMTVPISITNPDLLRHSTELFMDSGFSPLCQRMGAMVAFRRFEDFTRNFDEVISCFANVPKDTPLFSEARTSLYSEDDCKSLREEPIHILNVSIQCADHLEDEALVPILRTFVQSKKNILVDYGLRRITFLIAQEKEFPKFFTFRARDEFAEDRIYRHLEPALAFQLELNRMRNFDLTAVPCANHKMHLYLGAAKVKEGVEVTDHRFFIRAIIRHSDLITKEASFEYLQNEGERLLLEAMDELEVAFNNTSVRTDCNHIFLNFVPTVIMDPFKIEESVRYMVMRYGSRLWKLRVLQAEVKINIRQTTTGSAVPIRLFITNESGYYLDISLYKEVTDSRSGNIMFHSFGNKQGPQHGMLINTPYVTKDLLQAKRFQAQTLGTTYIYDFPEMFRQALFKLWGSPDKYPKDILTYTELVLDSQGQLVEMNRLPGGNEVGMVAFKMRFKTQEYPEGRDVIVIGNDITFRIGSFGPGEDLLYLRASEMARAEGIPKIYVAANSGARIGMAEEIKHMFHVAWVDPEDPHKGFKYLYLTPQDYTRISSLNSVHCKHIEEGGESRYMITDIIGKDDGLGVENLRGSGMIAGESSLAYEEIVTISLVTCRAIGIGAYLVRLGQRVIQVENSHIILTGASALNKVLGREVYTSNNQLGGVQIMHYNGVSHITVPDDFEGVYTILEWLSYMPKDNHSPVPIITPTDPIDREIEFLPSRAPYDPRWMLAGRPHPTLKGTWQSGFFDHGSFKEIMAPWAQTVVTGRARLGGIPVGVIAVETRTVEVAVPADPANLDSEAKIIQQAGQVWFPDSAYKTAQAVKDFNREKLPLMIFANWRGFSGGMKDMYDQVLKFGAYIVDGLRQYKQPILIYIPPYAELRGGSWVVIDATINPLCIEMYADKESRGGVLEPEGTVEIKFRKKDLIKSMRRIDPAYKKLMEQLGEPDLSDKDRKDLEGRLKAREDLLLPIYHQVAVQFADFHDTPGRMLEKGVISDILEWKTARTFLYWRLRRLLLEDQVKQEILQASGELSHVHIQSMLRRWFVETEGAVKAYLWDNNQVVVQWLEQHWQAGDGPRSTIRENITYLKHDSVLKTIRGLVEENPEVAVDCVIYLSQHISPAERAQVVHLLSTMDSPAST

pIC50: −log10 of the molar value.

This experiment has as its target recombinant human ACC2 (Homo sapiens (Human), UniProt O00763). The experiment can be described thus: Measurement of inhibitory activity on human ACC2 (MALDI-TOF MS, conversion of acetyl CoA to malonyl CoA). The format is biochemical. Particulars: recombinant human ACC2, room temperature, 1 to 3 hours. The source says: After a cDNA encoding human ACC2 (27 amino acid residue to 2458 amino acid residues from the N-terminus) was cloned from human kidney cDNA library (Clontech), human ACC2 gene containing His-tag sequence at 5′ terminus was inserted into pFastBac1 (Invitrogen). Recombinant baculovirus was generated using Bac-to-Bac baculovirus expression system (Invitrogen) according to the manufacturer's protocol. To express human ACC2, Sf-9 cells were infected with recombinant baculovirus. After infected cells were disrupted, the filtrated lysate was subjected to Ni-affinity chromatography and anion-exchange chromatography. The fractions containing human ACC2 protein were pooled as recombinant human ACC2 solution.
Recombinant human ACC1 and recombinant human ACC2, which were prepared by the method mentioned above, were preincubated with assay buffer solution (50 mM HEPES-KOH (pH 7.4), 10 mM magnesium chloride, 6-10 mM potassium citrate, 4 mM reduced form of glutathione, 1.5 mg/ml bovine serum albumin) for one hour. […] Then, after the samples were cocrystallized with CHCA (α-cyano-4-hydroxy cinnamic acid) matrices on MALDI target plate, by using the matrix assist laser […] time-of-flight mass spectrometer (MALDI-TOF MS), samples were measured in reflector negative mode. […]

In the case of `CC(=O)N[C@@H](C)CO[C@H]1CC[C@H](Oc2nc3c(F)cc(OC4CCC4)cc3n2C)CC1` [Example I-194], the pIC50 – broadly, −log10 of the IC50, conventionally taken in molar units – was 8.29.

For `CC(=O)N[C@@H](C)CO[C@H]1CC[C@H](Oc2nc3c(Cl)cc(OC4CC4)cc3n2C)CC1` [Example I-200], the pIC50 is 8.18.
